Results as given in patent US9107814B2, “Micelle composition of polymer and passenger drug” (Wisconsin Alumni Research Foundation, priority 2005, dated 2015).

Experiment: geldanamycin prodrug loading into and release from PEG-b-PCL micelles
Format: physicochemical
Details: time 6 days; prodrug in micelles
Description: These modified Hsp90 inhibitors may show sustained release from the carrier. Drugs were loaded into 0.5 mM PEG-b-PCL (5000:10000 Da) micelles to achieve a 25% wt loading (or 1.9 mg/ml solution). […] Drug diffusion was calculated as described in Forrest and Kwon, 2005 (Journal of Controlled Release).
PEG-PCL micelles are prepared by the drop-wise addition of geldanamycin prodrug and PEG-PCL dissolved in a miscible solvent, acetone, to vigorously stirred water, followed by removal of the solvent by N2 purge, and 0.2-μm filtration. Alternatively, the solution may be centrifuged to remove unincorporated and aggregated drug. The final solvent to water ratio is between about 0.1 and about 5, preferably between about 0.5 and about 4, and more preferably about 2. The micelle solution should be delivered at a rate of between about 2 s/drop and about 60 s/drop, preferably between about 5 s/drop and about 30 s/drop, and more preferably between about 10 s/drop and about 20 s/drop.

SMILES: CCCCCCCCCCCCCCCC(=O)OCCNC1=C2CC(C)CC(OC)C(O)C(C)C=C(C)C(OC(N)=O)C(OC)C=CC=C(C)C(=O)NC(=CC1=O)C2=O (stereo not shown) [17-aminoethyl-palmitate-17-demethoxygeldanamycin]
- fraction released: 0.7811
